The target in the assay is Histone deacetylase. Description: Inhibition of HDAC in human HeLa cell nuclear extracts. The class given is cell-based.

As for `CS(=O)(=O)CCNCc1ccc(-c2ccc3ncnc(Nc4ccc(OCc5cccc(F)c5)c(Cl)c4)c3c2)o1` [LAPATINIB], the IC50 was greater than 100 µM.

The IC50 is the midpoint of a concentration-inhibition curve.
